HCMV NEC inh – cytomegalovirus nuclear egress complex inhibition. 190,000 tested, 0.15% active. HTRF UL50-UL53 interaction, normalized percent inhibition. inhibition, % (test concentration not listed); in the data active = inhibition above about 27%, passing the limit was not always enough
GIV Gai3 FP – inhibitors of GIV peptide binding to Galpha-i3, primary screen, biochemical, fluorescence polarization, FITC-GIV GBA peptide, rat Galphai3 | 90 min; active compounds read low; scaled: aluminum fluoride 0%, vehicle 100% | percent of control (FP), % (test concentration not listed) | hit rate 0.42% among 210,000;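 active = replicate mean at 85% of control or lower, very high polarization wells dropped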;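 also: lower values mean more displacement of the GIV peptide from Galpha-i3; wells of about 15 µL received 100 nL stock; the first replicate is given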
GIV-Gai FP conf – GIV-Galpha-i3 inhibition, FP confirmation; shares compounds with GIV Gai3 FP; FITC-GIV peptide binding to Galphai3, fluorescence polarization; stronger effect = lower value; fluorescence polarization, mP at 100 µM; 580 tested, 38% active; AID 1259350;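 active = inhibition score of 15 or more, meaning 100 minus mean polarization as percent of control over three replicates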
GIV-Gai AS conf – GIV-Galpha-i3 inhibition, AlphaScreen confirmation; shares compounds with GIV Gai3 FP; AlphaScreen Galphai3-GIV binding, purified proteins, 90 min; stronger effect = lower value; AlphaScreen counts at 100 µM; 580 tested, 39% active; AID 1259351;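 active = inhibition score at or above a set limit, where the score is 100 minus the three-replicate mean percent of control signal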
* = called active by the depositor; · = no result given. This excerpt belongs to a sample that is enriched for hits.

SMILES	HCMV NEC inh	GIV Gai3 FP	others
COC(=O)Cn1cc(C=C2C(=O)N(C)C(=O)N(C)C2=O)c2ccccc21	-15	-2.1*
CCN1C(=O)NC(=O)/C(=C\c2cn(CC(=O)O)c3ccccc23)C1=O	-39	110
CN1CC=C(c2noc(CCC(=O)Nc3cccnc3)n2)CC1	-38	99
CN1CCc2c(C#N)c(N)n(N)c(=S)c2C1	-67	-103*
CN1CCc2[nH]c(=S)c(C#N)c(-c3ccccc3)c2C1	-30	·
CCOC(=O)c1c(CN2CCC(C(=O)OCC)(c3ccccc3)CC2)n(-c2ccccc2)c2ccc(O)cc12	·	110
O=C(Nc1nc2ccc3ccccc3c2s1)c1ccc(S(=O)(=O)N(CCCl)CCCl)cc1	-4	99
O=c1ccc2[nH]cc(C3=CCNCC3)c2[nH]1	5	107
C1=C(c2c[nH]c3ccccc23)CCNC1	-26	-23*
COCCOC(=O)C1=C(C)OC(N)=C(C#N)C12C(=O)Nc1ccc(Br)cc12 (stereo not drawn)	6	104
Cc1ccc(C)c(CN2CCN(Cc3ccccc3)CC2)c1	-2	99
COc1cc(C=C2C(=O)NC(=O)NC2=O)ccc1OS(=O)(=O)c1ccccc1	60*	89
CCOC(=O)CSCCOc1ccc(C=C2C(=O)NC(=O)NC2=O)cc1OC	60*	98
COc1ccc(C=C2C(=O)NC(=O)NC2=O)cc1	·	97
CCOC(=O)COc1ccc(/C=C2\C(=O)NC(=S)N(c3ccc(OC)cc3)C2=O)cc1OC	-32	102
Fc1ccc(Cl)cc1C1NCCc2[nH]cnc21 (stereo not drawn)	4	104
COc1cccc(C2C(C#N)=C(N)Oc3c2c(=O)oc2ccccc32)c1 (stereo not drawn)	50	107
CN1C(=O)[C@]23CC4=CC=C[C@H](O)[C@H]4N2C(=O)[C@@]1(CO)SS3	55*	·
O=C(CCc1nc(C2=CCN(Cc3ccc(Cl)cc3)CC2)no1)NC1CCCCC1	·	107
C=CCOC(=O)c1cc(-c2ccc(C=C3C(=O)NC(=S)NC3=O)o2)ccc1Cl	-11	111
COc1ccc(N2C(=O)NC(=O)/C(=C\c3cn(CC(=O)Nc4ccccc4)c4ccccc34)C2=O)cc1	·	89
CCOc1ccc(N2C(=O)NC(=O)/C(=C/c3cn(CC(=O)Nc4ccccc4)c4ccccc34)C2=O)cc1	1	-4.9*
N#CC(C#N)=Cc1ccc(-c2ccccc2)o1	-19	-0.4*
Cc1ccc(C=C(C#N)C#N)o1	-65	104
Cn1c(=O)c2ncnnc2n(C)c1=O	12	77*	GIV-Gai FP conf=58*;GIV-Gai AS conf=35976
CCOC(=O)c1c(C)n(Cc2ccccc2)c2cc(Br)c(OC(C)=O)cc12	·	112
O=C1NC(=O)N(Cc2ccccc2)C(=O)/C1=C/c1ccc(O)cc1	31	111
O=C1NC(=O)N(Cc2ccccc2)C(=O)/C1=C\c1ccccc1	·	15*	GIV-Gai FP conf=31*;GIV-Gai AS conf=14998*
CC(C)C(C(=O)NC1CN2CCC1CC2)c1ccc(Cl)cc1 (stereo not drawn)	-2	·
COc1ccc(OCC(=O)N2CCN(CC(=O)Nc3nnc(-c4ccccc4)s3)CC2)cc1	·	98
CN1C(=O)NC(=O)/C(=C/c2ccco2)C1=O	-2	100
O=C1NC(=S)NC(=O)C1=Cc1ccco1	2	73*	GIV-Gai FP conf=57*;GIV-Gai AS conf=5695*
C#CC[N+]12CN3CN(CN(C3)C1)C2	-77	110

A portion from the list above, for reference:
SMILES	HCMV NEC inh	GIV Gai3 FP	others
CC(C)C(C(=O)NC1CN2CCC1CC2)c1ccc(Cl)cc1 (stereo not drawn)	-2	·
COc1ccc(OCC(=O)N2CCN(CC(=O)Nc3nnc(-c4ccccc4)s3)CC2)cc1	·	98
CN1C(=O)NC(=O)/C(=C/c2ccco2)C1=O	-2	100
O=C1NC(=S)NC(=O)C1=Cc1ccco1	2	73*	GIV-Gai FP conf=57*;GIV-Gai AS conf=5695*

Compound activity deposited in PubChem BioAssay by ICCB-Longwood Screening Facility, Harvard Medical School.
